Measurements as given in patent publication US11007199B2, “Compositions and methods for ameliorating pain and reducing fever” (The Board of Supervisors of Louisiana State University and …, priority 2017, dated 2021).

Test system: CD-1 male mice
Assay: Acetic acid-induced abdominal writhing assay
Assay type: in vivo

`CC(=O)Nc1ccc(O)cc1` [ApAP, N-Acetyl-4-aminophenol, reference compound] was tested, and the “number of writhes induced by injection of acetic acid” value (FIG. 8, vehicle only nearly 40) was 20 and the ED50 (Mus musculus, ip, read-out: calculated 50% effective dose (ED50) based on the writhing assay) was 68.6 mg/kg.
